Reference: US20080234262A1 (Wyeth, priority 2007, published 2008)

Protein sequences, listed by entry. Tags and fused reporters are not part of them.
UniProt P42336, whole entry: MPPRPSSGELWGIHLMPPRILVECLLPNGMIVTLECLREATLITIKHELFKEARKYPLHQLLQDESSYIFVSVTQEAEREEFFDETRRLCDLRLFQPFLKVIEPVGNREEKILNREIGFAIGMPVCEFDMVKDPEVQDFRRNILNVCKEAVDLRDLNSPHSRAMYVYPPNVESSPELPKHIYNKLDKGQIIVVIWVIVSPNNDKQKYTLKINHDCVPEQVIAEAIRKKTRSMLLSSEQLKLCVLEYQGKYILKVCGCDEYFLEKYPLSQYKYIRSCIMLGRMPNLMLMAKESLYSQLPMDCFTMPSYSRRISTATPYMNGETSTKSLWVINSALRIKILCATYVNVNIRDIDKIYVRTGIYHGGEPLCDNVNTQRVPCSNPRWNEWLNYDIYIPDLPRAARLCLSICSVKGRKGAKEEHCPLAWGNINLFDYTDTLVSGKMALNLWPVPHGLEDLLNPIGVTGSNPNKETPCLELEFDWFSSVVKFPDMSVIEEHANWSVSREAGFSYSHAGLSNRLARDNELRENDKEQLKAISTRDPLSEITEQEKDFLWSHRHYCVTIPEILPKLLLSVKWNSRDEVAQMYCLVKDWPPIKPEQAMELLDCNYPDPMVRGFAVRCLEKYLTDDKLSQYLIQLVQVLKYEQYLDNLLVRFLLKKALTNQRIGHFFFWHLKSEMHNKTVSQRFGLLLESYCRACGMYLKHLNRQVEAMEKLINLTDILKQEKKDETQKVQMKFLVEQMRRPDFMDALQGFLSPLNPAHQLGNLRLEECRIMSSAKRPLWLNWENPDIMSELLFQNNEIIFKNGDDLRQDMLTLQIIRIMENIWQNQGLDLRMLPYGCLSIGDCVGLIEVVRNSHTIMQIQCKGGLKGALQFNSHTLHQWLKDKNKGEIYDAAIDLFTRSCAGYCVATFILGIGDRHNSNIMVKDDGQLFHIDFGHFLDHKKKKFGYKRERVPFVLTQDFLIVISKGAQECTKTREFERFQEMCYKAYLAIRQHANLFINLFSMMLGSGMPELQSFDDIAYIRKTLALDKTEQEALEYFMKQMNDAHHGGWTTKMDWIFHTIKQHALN

Target: PI3K (Homo sapiens, UniProt P42336)
Experiment: Fluorescence polarization assay for PI3K;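 further: PI3K kinase reaction on PIP2 with ATP, 30-60 min, product sensed by GST-GRP with red probe in fluorescence polarization (mP), controls without enzyme and at zero time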
Assay type: biochemical
Conditions: read-out: PI3Kα IC50

4-(4-morpholin-4-yl-1-phenyl-1H-pyrazolo[3,4-d]pyrimidin-6-yl)aniline [Example 10]
IC50: 69 nM
